Experimental data taken from article PMC1805503 (Beilstein Journal of Organic Chemistry, 2007).

Protein sequences, listed by entry. Tags and fused reporters are not part of them. Lines headed by an entry give the natural chain unless they say otherwise; changes in a name come on top.
UniProt P41145: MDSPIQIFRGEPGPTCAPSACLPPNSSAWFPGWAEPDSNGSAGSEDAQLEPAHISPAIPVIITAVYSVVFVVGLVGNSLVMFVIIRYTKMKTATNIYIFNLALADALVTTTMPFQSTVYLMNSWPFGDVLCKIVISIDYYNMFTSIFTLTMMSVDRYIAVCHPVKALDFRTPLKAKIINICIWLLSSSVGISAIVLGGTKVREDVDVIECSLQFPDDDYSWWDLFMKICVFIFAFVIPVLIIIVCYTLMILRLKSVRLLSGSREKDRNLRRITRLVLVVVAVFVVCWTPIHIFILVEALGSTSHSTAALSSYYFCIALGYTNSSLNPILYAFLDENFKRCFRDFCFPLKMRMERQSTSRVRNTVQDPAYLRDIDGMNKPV

How the values were obtained:
[1] = target: T1, human KOR (Homo sapiens, UniProt P41145); assay: biochemical; type: binding
T1 construct: expressed in transfected cells; host or cells: CHO cells expressing hKOR (membranes), according to the assay names of the earlier reading

[2] = target: T1, human KOR; assay: biochemical
[3] = target: T1, human KOR; conditions: cited from earlier work

COC(=O)C1CC(O)C(=O)C2C1(C)CCC1C(=O)OC(c3ccoc3)CC12C (stereo not drawn) [Compound 2b, 8-epi-salvinorin B]
Ki [1]: 304 ± 46 nM | EC50 [2]: 214 ± 33 nM

COC(=O)C1CC(OC(C)=O)C(=O)C2C1(C)CCC1C(=O)OC(c3ccoc3)CC12C (stereo not drawn) [Compound 1b, 8-epi-salvinorin A]
affinity and potency at the KOR relative to 1a ([3]; compared with 1a): dramatically lower

COC(=O)[C@@H]1C[C@H](O)C(=O)[C@H]2[C@@]1(C)CC[C@H]1C(=O)O[C@H](c3ccoc3)C[C@]21C [Compound 2a, salvinorin B, reference compound]
Ki ([3]; read-out: binding affinity (Ki) at the KOR, previously reported): 111 nM

Read-outs that look alike come from different tables or passages of the source.
